Ab-14 light chain CDR variants: yeast mating affinities

Source: Li et al. 2023 (doi:10.1038/s41467-023-39022-2), MIT Lincoln Laboratory and A-Alpha Bio; data file from the FLAb repository.

Binding partner: SARS-CoV-2 spike HR2 peptide, sequence PDVDLGDISGINAS.

Parent: Ab-14, a human scFv built as VH, a 15-residue (Gly4Ser)3 linker, VL. Only the CDRs of the light chain vary.
VH: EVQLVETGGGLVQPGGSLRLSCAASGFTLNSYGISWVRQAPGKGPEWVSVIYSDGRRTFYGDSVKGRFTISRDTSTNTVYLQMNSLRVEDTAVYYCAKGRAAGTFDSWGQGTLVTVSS
VL: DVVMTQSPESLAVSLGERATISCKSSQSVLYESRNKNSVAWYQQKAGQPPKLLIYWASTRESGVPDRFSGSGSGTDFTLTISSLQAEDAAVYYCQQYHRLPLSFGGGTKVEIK

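Phage display of a naive human antibody library on the peptide gave the parent. The variants were designed computationally from a first round of random CDR variants and then made and measured. Their group label is 14L_Ctrl (Ctrl: baseline library sampled from a position-specific scoring matrix, with some repeated check sequences). The assay is AlphaSeq: two haploid yeast populations carry antibody and antigen on their surface. Pairs that bind mate more often; barcode pairs of the diploids are counted by sequencing. A regression on co-assayed BCL2-family reference pairs converts the normalised counts of each replicate to an apparent Kd. Each pool was mated in six replicate cultures.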

Each variant is given by its three light chain CDRs, as the data file delimits them; those of the parent are KSSQSVLYESRNKNSVA, WASTRES, QQYHRLPLS. Numbers give log10(Kd / nM), so 0 is 1 nM and 3 is 1 µM. Smaller is tighter. Where no diploid with the target was found in that replicate, the entry reads "nd": below detection, most likely a poor binder, though not proof of it.

With KSSQSVLYESRSSNSVA | WASTRES | QQYHRLPLS the result was nd, 2.06, nd, 3.24, nd, 1.76 (controls 0 of 18).
With KQSQSVLYDSRNHNSVA | WASTRES | QQYHRLPLG the result was nd, nd, nd, nd, nd, 2.13 (controls 0 of 18).
With KSSQSVLYEYRNKNSVA | WASTRES | QQYHRLPVS the result was nd, nd, 1.63, nd, nd, nd (controls 0 of 18).
With KSSQSVLYEQRNVHSVA | FASTRES | QQYHRLPLS the result was nd, 2.97, nd, nd, 3.20, nd (controls 0 of 18).
With KSSPSVLYESRNTNSVA | WASTRES | QDYHRLELS the result was nd, 2.62, nd, 1.57, nd, 1.57 (controls 0 of 18).
With KSSQSVLYESRNKNSVA | EADTRAS | QSYHRLPLS the result was 0.80, 0.70, 0.57, 0.72, 0.57, 1.02 (controls 2 of 18).
With KSEQSVLYSRRNKNSVA | DASTRES | QQYHRLPAS the result was nd, 2.53, nd, 3.15, nd, nd (controls 0 of 18).
With KSSQSVLYECRNKNSVA | DASTRES | QQYHRLPLS the result was 1.30, 1.57, 1.82, 1.46, 1.03, 1.84 (controls 1 of 18).
With KSSQSVTYESRNKNSVA | SASKRES | QQYHRLPLS the result was 1.27, 1.39, 2.07, 1.11, 1.53, 1.24 (controls 0 of 18).
With KSSYSVLYESRNKNSVA | SASVRES | QQKHRLPLS the result was 1.40, 1.19, 1.40, 1.32, 1.84, 0.88 (controls 1 of 18).
With KSSQSMLYESENKNSVA | KATTRTR | QQYHRLPLS the result was 0.90, 0.79, 1.66, 1.31, 1.49, 2.12 (controls 0 of 18).
With KSSQSKLYESRNKNFVA | NASYRES | QQYHRLPLS the result was 0.88, 1.27, 0.78, 1.10, 0.70, 1.44 (controls 2 of 18).
With KSSQSVLYESRVKNSIA | WASTRES | QQYHRLPLS the result was nd, nd, nd, nd, nd, nd (controls 0 of 18).
With KSSQSVLYESRNKNSVA | WASTRET | CQYHRLPLS the result was nd, nd, nd, nd, nd, nd (controls 0 of 18).
With KSSQSVLYESFNKNSVA | WASTRSS | QQYHRLHLS the result was nd, nd, nd, nd, nd, nd (controls 0 of 18).
With KSSQSVPYESSNKNSVA | WASTRES | QQYHRLPLS the result was 1.56, 1.20, 1.12, 1.28, 1.49, 1.71 (controls 1 of 18).
With SSSQSVLYESRNKNSVA | WASTRES | QQYHRMPLS the result was nd, nd, 2.48, nd, 2.24, nd (controls 1 of 18).
With KFSQSVLYESRGKNSVA | MASTRES | QQYIRLPAS the result was nd, nd, nd, nd, nd, nd (controls 1 of 18).
With KISQSVLYEDRTKNSVA | WATTRES | GQYHRLPLS the result was nd, 1.50, 2.03, 1.03, 1.19, 0.38 (controls 0 of 18).
With KSSQSVLYESANCNSVA | WASTRES | QQYHRLPLS the result was 1.84, 1.18, 2.62, 2.19, 1.72, 1.66 (controls 2 of 18).
With KGSQSWLYESRNKNSVA | EASTRES | QQYHRLPLS the result was -0.28, -0.32, -0.51, -0.60, -0.50, -0.38 (controls 1 of 18).
With KSSQSVLYEYRNKNSVA | WASTRAS | QQYHRLPLS the result was nd, 2.97, 1.63, nd, 2.06, 2.08 (controls 1 of 18).
With KSSQSVLYEDENKNSVA | HASTRES | QQYHRLPLS the result was 0.01, 0.03, -0.18, -0.18, -0.19, 0.23 (controls 0 of 18).
With KSSQSVSYESRNKNSVA | WASTRES | QQYHGLPLS the result was nd, nd, nd, nd, nd, nd (controls 2 of 18).
With KYSQSVLYESRNKNSVA | WASTRES | QQYFRLPLS the result was nd, nd, nd, 2.19, nd, 2.74 (controls 1 of 18).
With KSSQSVMYESRNSNSVA | WASTRVS | QQYHRLPLS the result was 2.81, 1.77, 1.14, 1.56, 1.34, 1.80 (controls 0 of 18).
With KSSQSVLYESRNKNNVA | WASTRES | QQYFVLPTS the result was 4.02, nd, nd, nd, nd, nd (controls 1 of 18).
With KSSQSVLYESRNKNSVA | SASTRES | QQYQRLPSS the result was nd, 4.37, 2.44, nd, nd, nd (controls 1 of 18).
With KWEQAVLYESVNKNSVA | WASTRES | QQYHRLPLS the result was nd, nd, nd, nd, nd, nd (controls 0 of 18).
With YHSQSVLYESRNKNSVA | WASTRES | QQYHRLPLS the result was nd, nd, nd, nd, nd, nd (controls 0 of 18).
With KSSQSVLSESRRKNSVA | WASTRES | QQYHRLPLS the result was nd, nd, nd, nd, nd, nd (controls 0 of 18).
With KCSQSVLMESPNKNSVA | WASTRES | QQYHRLPLS the result was nd, 1.07, 1.42, 2.35, 2.37, 1.32 (controls 1 of 18).
With KSSQSVLYESRNKNSVA | WASTRES | QQYHVLPLS the result was nd, nd, 2.98, nd, nd, 2.57 (controls 0 of 18).
With KQSQSVLYESRNKNSVA | WASTRES | QQYHRLPLS the result was 1.75, 2.47, 2.37, 1.40, 1.90, 1.71 (controls 0 of 18).
With KSHQSVLNISRNKNSVA | WASTRES | QQYHRLPLS the result was nd, nd, nd, nd, nd, nd (controls 0 of 18).
With KCSQSVLYEHRNQNSVA | WASTRES | QDYHYFPLS the result was nd, nd, nd, nd, nd, nd (controls 3 of 18).
With KSSQSWLYGSHNKNSVA | QASTRES | QQYHRLPLS the result was 0.72, 0.91, 1.31, 1.19, 0.80, 1.12 (controls 0 of 18).
With KSSQSDLYESRNKVSVA | WASTRES | QQYHRLPIS the result was nd, nd, nd, nd, 1.97, nd (controls 1 of 18).
With KSSQSVLSESPNKNSVA | AASTRES | QQYHRLPLS the result was 0.33, 0.27, 0.44, 0.54, 0.00, 0.55 (controls 2 of 18).

Nonspecific signal, from three strains lacking the peptide, appeared in 4% of pairings of all light chain designs, centred on 2.64 (5% of these signals below 1.59); values are not corrected for it. Also given: how often the same scFv was detected with the empty control strains. Values of this round are not directly comparable with the first-round values of the same sequences. In the paper, a design with two or fewer of six values counts as a poor binder. The parent sequence was in this pool as ten entries: three were never detected, three once, and four in most replicates, with averages from 0.34 to 2.37.